Experimental data reported in patent US5849691A, “Peptidomimetic inhibitors of cathepsin D and plasmepsins I and II” (The United States of America as represented by the …, priority 1996, dated 1998).

The chains behind the UniProt entries cited, without tags or fusion partners. Residues count along the entry.
UniProt P07339, 65-412 limits assumed: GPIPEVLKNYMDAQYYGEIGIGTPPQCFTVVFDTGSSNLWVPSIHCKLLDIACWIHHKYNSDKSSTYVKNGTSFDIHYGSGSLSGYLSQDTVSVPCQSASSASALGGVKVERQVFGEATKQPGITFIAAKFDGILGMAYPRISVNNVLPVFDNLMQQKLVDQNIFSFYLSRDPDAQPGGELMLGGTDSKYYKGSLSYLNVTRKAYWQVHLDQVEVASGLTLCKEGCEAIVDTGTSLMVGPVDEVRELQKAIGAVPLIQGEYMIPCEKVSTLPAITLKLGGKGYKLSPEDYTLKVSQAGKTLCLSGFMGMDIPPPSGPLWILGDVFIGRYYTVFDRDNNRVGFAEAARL

Each compound was assayed against cathepsin D (Homo sapiens, UniProt P07339) (assay: cathepsin D inhibition assay with fluorogenic substrate (tight-binding kinetics)). Settings: target named only in b168/b175 (cathepsin D), elsewhere implied.
Assay type: biochemical

| Compound | Ki [µM] |
| --- | --- |
| CC(C)[C@@H]1NC(=O)C[C@H](O)[C@H](Cc2ccccc2)NC(=O)NCCCCCCCCCCCNC1=O | 0.045 |
| O=C1C[C@H](O)[C@H](Cc2ccccc2)NC(=O)CCCCCCCCCCCNC(=O)[C@H](C2CCCCC2)N1 | 0.085 |
| C[C@@H]1NC(=O)C[C@H](O)[C@H](Cc2ccccc2)NC(=O)CCCCCCCCCCNC1=O | 0.14 |
| O=C1C[C@H](O)[C@H](Cc2ccccc2)NC(=O)CCCCCCCCCCCNC(=O)[C@H](Cc2ccccc2)N1 | 0.021 |
| CCC(C)[C@@H]1NC(=O)C[C@H](O)[C@H](Cc2ccccc2)NC(=O)CCCCCCCCCCCNC1=O (stereo partly drawn) | 0.022 |

These reach a lower Ki. Values come first.

| Ki [µM] | Compound |
| --- | --- |
| 0.01 | CC(C)[C@@H]1NC(=O)C[C@H](O)[C@H](CC2CCCCC2)NC(=O)CCCCCCCCCCCNC1=O |
| 0.02 | CC(C)[C@@H]1NC(=O)C[C@H](O)[C@H](Cc2ccccc2)NC(=O)CCCCCCCCCCNC1=O |
| 0.004 | CC(C)[C@@H]1NC(=O)C[C@H](O)[C@H](Cc2ccccc2)NC(=O)CCCCCCCCCCCNC1=O |
| 0.0036 | CC(C)[C@@H]1NC(=O)C[C@H](O)[C@H](Cc2ccccc2)NC(=O)OCCCCCCCCCCCNC1=O |
